## Binding of CDR-mutated scFvs to a peptide of the spike HR2 region

The measurements come from Engelhart et al. 2022 (doi:10.1038/s41597-022-01779-4) through the FLAb antibody collection.

The target is the same throughout: PDVDLGDISGINAS, from the HR2 region of SARS-CoV-2 spike.

Ab-14 is the parent antibody, in scFv form: VH, then the linker GGGGSGGGGSGGGGS, then VL. The heavy chain is unchanged in all variants.
VH: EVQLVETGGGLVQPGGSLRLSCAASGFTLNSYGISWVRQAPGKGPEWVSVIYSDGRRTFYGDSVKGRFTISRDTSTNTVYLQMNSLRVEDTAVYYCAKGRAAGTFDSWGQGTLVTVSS
VL: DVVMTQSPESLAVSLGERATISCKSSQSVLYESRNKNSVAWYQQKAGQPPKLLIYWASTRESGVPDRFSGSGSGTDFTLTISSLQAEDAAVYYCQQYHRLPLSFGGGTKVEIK

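The starting antibody came from a phage panning campaign against this peptide. AAYL50 was designed without a model: most single CDR substitutions and a random sample of double and triple ones. In AlphaSeq, yeast of one mating type display the scFv and yeast of the other type display the target. Binding brings cells together so that they mate, and sequencing counts the barcode pairs among the diploids. A regression on co-assayed BCL2-family reference pairs converts the normalised counts of each replicate to an apparent Kd. Mating was done three times.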

Substitutions are numbered in sequence along the VL above, starting at 1 (not Kabat).
Numbers give log10(Kd / nM), so 0 is 1 nM and 3 is 1 µM. Smaller is tighter.
The mean shown is taken over the replicates in which the pair was detected.
An entry "n.d." has no value in the source: the pair was not observed among the diploids in that replicate. This suggests poor binding but is not conclusive.
Nonspecific signal, from three strains lacking the peptide, appeared in 18% of pairings of library AAYL50, centred on 4.19 (5% of these signals below 2.99); values are not corrected for it. Also given: how often the same scFv was detected with the empty control strains, with their mean in brackets.
Parent in this assay: reference entry 0.65, copy in this library 1.68.

changes	log10 Kd, replicates	log10 Kd (nM), mean	control signals
N35L+E61G+S103W	4.40 / 3.14 / 3.42	3.65	2/9 (4.08)
K24Y+Y97E	n.d. / n.d. / n.d.	n.d.	0/9
T59V+E61R	n.d. / n.d. / n.d.	n.d.	0/9
V29Q+A57T	0.68 / 0.86 / 0.92	0.82	3/9 (3.89)
K24I+L100D	n.d. / 2.77 / n.d.	2.77	1/9 (3.30)
S28H+Y31T+H98A	n.d. / n.d. / n.d.	n.d.	0/9
E32P+S38P+S62G	3.17 / 2.38 / 2.77	2.78	3/9 (4.39)
S25P+K36L+E61L	0.95 / 1.40 / 1.17	1.17	0/9
S28Q+S58N+S62R	1.02 / 1.13 / 0.97	1.04	0/9
K24T+K36G	1.42 / 1.51 / 1.52	1.48	2/9 (3.94)
L30K+K36P+W56K	n.d. / n.d. / n.d.	n.d.	0/9
S28Q+W56M+P101M	1.08 / 0.96 / 1.06	1.03	0/9
V39Y+Q96D+H98V	n.d. / n.d. / 4.38	4.38	1/9 (5.23)
V39G+A57G+S62W	n.d. / n.d. / 6.22	6.22	0/9
S28G+L30R+R60W	4.08 / n.d. / 3.59	3.83	5/9 (4.04)
K36M+A57D+L102N	1.73 / 1.73 / 1.91	1.79	2/9 (4.34)
R99G	n.d. / n.d. / 1.80	1.80	0/9
N35H+K36G+Q95N	n.d. / n.d. / n.d.	n.d.	0/9
Y31H+R34C+T59P	n.d. / n.d. / n.d.	n.d.	0/9
A40W+R60W+E61Y	n.d. / n.d. / n.d.	n.d.	3/9 (3.20)
S28N+H98Y+S103V	0.63 / 0.66 / 0.47	0.59	1/9 (2.85)
R60S+Q95P+R99K	n.d. / n.d. / n.d.	n.d.	0/9
N35Q+S38P+R60Y	n.d. / n.d. / 3.47	3.47	6/9 (4.30)
S33R+W56E+A57Y	2.51 / 2.23 / 2.81	2.52	3/9 (5.04)
L30I+K36Y+T59D	3.46 / 2.71 / 3.55	3.24	3/9 (3.82)
Q27T+S28K+W56D	-0.37 / -0.03 / -0.30	-0.23	9/9 (5.28)
E32R+K36G+A57S	2.69 / 2.33 / 2.83	2.62	0/9
S25D+S33H+A40M	4.27 / n.d. / n.d.	4.27	0/9
S26Q+R60D+P101A	n.d. / n.d. / n.d.	n.d.	4/9 (4.56)
E32R+P101N	n.d. / 2.89 / n.d.	2.89	0/9
Q27H+R34K+P101T	1.81 / 1.80 / 2.11	1.91	1/9 (4.56)
E32M+E61R+R99S	3.34 / 3.31 / 3.62	3.42	2/9 (3.68)
S62I+H98L+R99E	7.15 / n.d. / 5.62	6.39	5/9 (4.97)
A57H+E61K+L102D	n.d. / n.d. / n.d.	n.d.	0/9
R34G+N35S+S62L	0.61 / 0.91 / 0.88	0.80	2/9 (4.34)
R34A+H98I+L102I	1.51 / 1.32 / 1.59	1.48	0/9
L30R+V39Q+H98C	n.d. / n.d. / 5.75	5.75	2/9 (3.31)
R34M+N35C+A40R	n.d. / n.d. / n.d.	n.d.	0/9
L100C+L102E+S103D	5.73 / 4.28 / n.d.	5.00	1/9 (3.07)
Q27D+T59L+S62C	1.80 / 1.95 / 1.51	1.75	1/9 (3.80)
K24P+L30A+A40Q	4.71 / n.d. / 5.81	5.26	4/9 (4.79)
V29G+R60K+R99L	2.67 / 4.25 / 2.11	3.01	0/9
K36V+S38F+L102Q	n.d. / n.d. / n.d.	n.d.	0/9
S33Y+T59H+Q96E	n.d. / n.d. / n.d.	n.d.	4/9 (4.44)
Q27I+Y31P+T59V	-0.04 / 0.51 / 0.22	0.23	0/9

Picked from the list: the 5 lowest averages where every replicate gave a value.

changes	log10 Kd, replicates	log10 Kd (nM), mean	control signals
Q27T+S28K+W56D	-0.37 / -0.03 / -0.30	-0.23	9/9 (5.28)
Q27I+Y31P+T59V	-0.04 / 0.51 / 0.22	0.23	0/9
S28N+H98Y+S103V	0.63 / 0.66 / 0.47	0.59	1/9 (2.85)
R34G+N35S+S62L	0.61 / 0.91 / 0.88	0.80	2/9 (4.34)
V29Q+A57T	0.68 / 0.86 / 0.92	0.82	3/9 (3.89)